Values quoted from earlier work in PMC10390508, “Structural insights into selective small molecule activation of PKG1α” (Communications Biology, 2023).

System: PKG1β
Settings: PKG1β with 100 nM cGMP vs. PKG1α with 10 nM cGMP; full-length protein; cited from earlier work

Compound	increase in concentration to elicit the same level of activation on PKG1β [x]
Cc1cc(C(=O)O)ccc1CN1CCC[C@H](O[C@@H](CO)c2cc(Cl)cc(Cl)c2)[C@@H]1c1ccccc1 [SMA3]	6.5
Nc1cc(C(=O)O)ccc1CN1CCC[C@H](O[C@@H](CO)c2cc(Cl)cc(Cl)c2)[C@@H]1c1ccccc1 [SMA2]	12
O=C(O)c1ccc(CN2CCC[C@H](OC(CO)c3cc(Cl)cc(Cl)c3)[C@@H]2c2ccccc2)c([N+](=O)[O-])c1 (stereo partly drawn) [SMA1]	12
